From ChEMBL document CHEMBL1141921, “Phthalazinones. Part 1: The design and synthesis of a novel series of potent inhibitors of poly(ADP-ribose)polymerase” (Bioorg Med Chem Lett, 2005)

Protein sequences, listed by entry. Tags and fused reporters are not part of them.
UniProt P09874, whole entry: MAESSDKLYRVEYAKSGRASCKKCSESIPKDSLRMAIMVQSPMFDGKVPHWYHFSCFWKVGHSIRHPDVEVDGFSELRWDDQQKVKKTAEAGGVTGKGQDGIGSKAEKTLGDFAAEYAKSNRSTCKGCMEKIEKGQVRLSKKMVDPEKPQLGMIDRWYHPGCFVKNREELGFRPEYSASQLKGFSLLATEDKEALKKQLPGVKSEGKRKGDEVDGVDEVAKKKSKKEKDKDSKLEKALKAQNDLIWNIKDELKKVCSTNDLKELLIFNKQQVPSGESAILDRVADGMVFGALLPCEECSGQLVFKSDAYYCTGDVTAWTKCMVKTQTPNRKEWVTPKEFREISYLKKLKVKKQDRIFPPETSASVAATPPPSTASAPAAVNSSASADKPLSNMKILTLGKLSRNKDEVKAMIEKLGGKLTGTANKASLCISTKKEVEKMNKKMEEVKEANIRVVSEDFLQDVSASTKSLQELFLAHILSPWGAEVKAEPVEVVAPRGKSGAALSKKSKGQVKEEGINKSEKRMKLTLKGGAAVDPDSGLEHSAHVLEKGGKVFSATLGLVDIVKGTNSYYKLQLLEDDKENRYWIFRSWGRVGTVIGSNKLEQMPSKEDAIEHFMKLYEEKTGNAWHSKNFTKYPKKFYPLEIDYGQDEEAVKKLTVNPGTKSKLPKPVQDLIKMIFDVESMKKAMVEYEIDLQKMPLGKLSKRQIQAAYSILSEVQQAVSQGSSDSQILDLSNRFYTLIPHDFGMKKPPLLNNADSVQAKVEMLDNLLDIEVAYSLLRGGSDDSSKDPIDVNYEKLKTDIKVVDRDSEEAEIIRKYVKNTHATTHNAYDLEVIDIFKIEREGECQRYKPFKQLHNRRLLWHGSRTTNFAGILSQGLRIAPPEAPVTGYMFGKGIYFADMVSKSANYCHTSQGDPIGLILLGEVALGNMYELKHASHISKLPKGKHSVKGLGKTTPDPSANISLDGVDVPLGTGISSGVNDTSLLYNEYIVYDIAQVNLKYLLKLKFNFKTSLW

Biological target: Poly [ADP-ribose] polymerase 1 (Homo sapiens, UniProt P09874)

Row | Structure (SMILES) | IC50 [nM]
1 | CN1CC(=O)N(c2cc(Cc3n[nH]c(=O)c4ccccc34)ccc2F)C(=O)C1 | 9.5
2 | CC1(C)CC(=O)N(c2cc(Cc3n[nH]c(=O)c4ccccc34)ccc2F)C1=O | 9.8
3 | O=C1CCCC(=O)N1c1cc(Cc2n[nH]c(=O)c3ccccc23)ccc1F | 4.1
